What was measured:
Type in all cases: cell-based, human
[1] = test system: H59-44T melanoma cell line; test: Intracellular antibody staining and flow cytometry (Melan-A/MART-1, gp100/HMB45); details: IFN-β 5000 IU/ml for three days
Experimental: (§1) Cells were fixed with 1% formaldehyde, permeabilized with 0.1% saponin, stained with monoclonal antibodies to melanocyte antigens. Antibodies were obtained with specificity for: MART-1 from Vector Labs (Burlingame, Calif.); gp100 HMB45 from DakoCytomation (Carpinteria, Calif.) and then visualized with goat anti-mouse FITC-conjugated secondary antibody from Invitrogen (Fredrick, Md.). The level of EGFP was determined by flow cytometry of unfixed cells that were washed and resuspended in 1×PBS.
(§2) Cells were plated at a density of 1×10^5 in 1 ml of medium in a 24-well plate and cultured for varying times as indicated in results. Typically, 3 days of culture in the presence of Hsp90 inhibitors was optimal for the functional studies performed. After incubation, cells were collected by trypsinization and then evaluated by flow cytometry.
(§3) Intracellular staining and flow cytometric analyses of cytoplasmic Melan-A/MART-1, and gp100 expression were performed as described previously. Cells were fixed with 1% formaldehyde, permeabilized with 0.1% saponin, stained with monoclonal antibodies to melanocyte antigens. […] The level of EGFP was determined by flow cytometry of unfixed cells washed and resuspended in 1×PBS. […]

453A melanoma cell line = test: as above; details: IFN-β 5000 IU/ml for three days
Experimental: as §1, §2, §3

MUX melanoma cell line = test: Antibody staining and flow cytometry (intracellular Melan-A/MART-1, gp100, TRP-2; surface MHC Class I)
Experimental: as §1, §2
(§4) Intracellular staining and flow cytometric analyses of cytoplasmic Melan-A/MART-1, and gp100 expression were performed as described previously. Cells were fixed with 1% formaldehyde, permeabilized with 0.1% saponin, stained with monoclonal antibodies to melanocyte antigens. Antibodies were obtained with specificity for: Melan-A/MART-1 from Vector Labs (Burlingame, Calif.); gp100/HMB45 from DakoCytomation (Carpinteria, Calif.) and then visualized with goat anti-mouse FITC-conjugated secondary antibody from Invitrogen (Frederick, Md.). The level of EGFP was determined by flow cytometry of unfixed cells washed and resuspended in 1×PBS. Surface staining of MHC Class I was carried out using the antibody W6/32 on cells harvested with Cell Stripper from MediaTech Inc. (Manassas, Va.) and carried out on ice.
(§5) Cell were seeded at 1×10^6 cells in a T25 flask with 10 ml of media for the 4 day IFN-beta pre-treatments. Cells were then harvested and plated in 24 well plate at 1×10^5 cells per well in 1 ml of media for 3 day treatments.
(§6) For surface staining of HLA Class I and II antigens, cells were harvested using CellStripper™ from Mediatech (Manassas, Va.). All staining steps were performed on ice. Following a first incubation with antibody to Class I (W6/32) or Class II (L243) for 30 minutes. Stained cells were washed twice with cold PBS and then stained with a goat anti-mouse FITC secondary antibody to allow for quantitative analysis by flow cytometry. For evaluation of cytoplasmic antigens, including Melan-A/MART-1 and gp100, cells were first fixed in paraformaldehyde and permeabilized with saponin as previously described. Staining for cytoplasmic antigens was carried out at room temperature (22° C.).

A375 melanoma cell line = test: as above; details: for MHC Class I, geometric mean of surface staining (W6/32): 17-AEP 0.5, PU-H71 0.15, CCT018159 2.5
Experimental: as §1, §2, §4, §5, §6

[2] = test system: Raji B cell lymphoma cells; test: Surface antibody staining and flow cytometry (MHC Class I/II)
Experimental: as §4, §5, §6

[3] = test system: MCF-7 breast cancer cells; test: as above; details: MCF-7
Experimental: as §4, §5, §6

[4] = test system: HeLa cervical carcinoma cells; test: as above
Experimental: as §4, §5, §6

U2-OS osteosarcoma cells = test: as above; details: U2-OS
Experimental: as §4, §5, §6

[5] = test system: U-118 MG glioma cell line; test: Antibody staining and flow cytometry (intracellular gp100; surface MHC Class I/II); details: for Class I MHC, geometric mean of surface staining (W6/32): U-118
Experimental: as §1, §2, §4, §5, §6

[6] = 3 days, IFN-beta 5000 Units/ml, 17-AEP 1.0, PU-H71 0.3, CCT018159 10.0 μg/ml
[7] = IFN-β 5000 IU/ml for three days
[8] = 3 days, IFN-beta 5000 Units/ml, 17-AEP 0.5, PU-H71 0.15, CCT018159 2.5 μg/ml
[9] = 4 day IFN-β pre-treatment (5000 Units/ml), then 3 days with fresh IFN-β, with PU-H71 0.3 mg/ml where labelled (label IFN-β: no inhibitor)
[10] = 4 day IFN-β pre-treatment (5000 Units/ml), then 3 days without IFN-β, with PU-H71 0.3 mg/ml where labelled (label IFN-β: no inhibitor)
[11] = single agent for 3 days, no IFN-β pre-treatment, IFN-β 5000 Units/ml, PU-H71 0.3 mg/ml
[12] = three days, IFN-β 5000 Units/ml, IFN-γ 100 ng/ml, PU-H71 0.3 mg/ml
[13] = three days, IFN-β 5000 Units/ml, PU-H71 0.075-0.3 mg/ml
[14] = U-118 MG, 3 days, IFN-beta 5000 Units/ml, 17-AEP 1.0, PU-H71 0.3, CCT018159 10.0 μg/ml

B1: IFN-β: IFN-β-1a (Avonex) obtained from Biogen-Idec; SEQ ID NO: 1 (protein, listed as Homo sapiens)
chain: MSYNLLGFLQRSSNFQCQKLLWQLNGRLEYCLKDRMNFDIPEEIKQLQQFQKEDAALTIYEMLQNIFAIFRQDSSSTGWNETIVENLLANVYHQINHLKTVLEEKLEKEDFTRGKLMSSLHLKRYYGRILHYLKAKEYSHCAWTIVRVEILRNFYFINRLTGYLRN
modifications: (1)..(166) IFN-beta-1a
- MART-1, geometric mean of intracellular staining using anti-MART-1 [1]: 103
- MART-1, geometric mean of intracellular staining using anti-MART-1 (453A melanoma cell line): 113
- Class I, fold increase relative to untreated control (MUX melanoma cell line; [6]): 1.5 fold
- Class I, geometric mean of surface staining (W6/32) (MUX melanoma cell line; [6]): 158
- MART-1, fold increase relative to untreated control (MUX melanoma cell line; [6]): 1.4 fold
- MART-1, geometric mean of intracellular staining (MUX melanoma cell line; [6]): 18
- TRP-2, fold increase relative to untreated control (MUX melanoma cell line; [6]): 1.3 fold
- TRP-2, geometric mean of intracellular staining (MUX melanoma cell line; [6]): 55
- gp100, fold increase relative to untreated control (MUX melanoma cell line; [6]): 1.8 fold
- gp100, geometric mean of intracellular staining (MUX melanoma cell line; [6]): 46
- MHC Class I, geometric mean of surface staining (W6/32) (MUX melanoma cell line; 4 day IFN-β pre-treatment (5000 Units/ml), then 3 days with fresh IFN-β and the labelled HSP90 inhibitor (label IFN-β: no inhibitor), 17-AEP 1, PU-H71 0.3, CCT018159 10 mg/ml): 499
- MHC Class I, geometric mean of surface staining (W6/32) (MUX melanoma cell line; 4 day IFN-β pre-treatment (5000 Units/ml), then 3 days without IFN-β with the labelled HSP90 inhibitor (label IFN-β: no inhibitor), 17-AEP 1, PU-H71 0.3, CCT018159 10 mg/ml): 207
- MART-1, geometric mean of intracellular staining using anti-MART-1 (MUX melanoma cell line; [7]): 18
- MHC Class I, geometric mean of surface staining (W6/32) (MUX melanoma cell line; single agent for 3 days, no IFN-β pre-treatment, IFN-β 5000 Units/ml, 17-AEP 1 μg/ml, PU-H71 0.3 μg/ml, CCT018159 10 μg/ml): 388
- MHC Class I, geometric mean of surface staining (W6/32) (MUX melanoma cell line; three days, IFN-β 5000 Units/ml, 17-AEP 1 μg/ml, PU-H71 0.3 μg/ml, CCT018159 10 μg/ml): 158
- Class I, fold increase relative to untreated control (A375 melanoma cell line; [8]): 2.3 fold
- Class I, geometric mean of surface staining (W6/32) (A375 melanoma cell line; [8]): 84
- MART-1, fold increase relative to untreated control (A375 melanoma cell line; [8]): 1.3 fold
- MART-1, geometric mean of intracellular staining (A375 melanoma cell line; [8]): 8
- TRP-2, fold increase relative to untreated control (A375 melanoma cell line; [8]): 1.5 fold
- TRP-2, geometric mean of intracellular staining (A375 melanoma cell line; [8]): 24
- gp100, fold increase relative to untreated control (A375 melanoma cell line; [8]): 1.1 fold
- gp100, geometric mean of intracellular staining (A375 melanoma cell line; [8]): 17
- MHC Class I, geometric mean of surface staining (W6/32) (A375 melanoma cell line; 4 day IFN-β pre-treatment (5000 Units/ml), then 3 days with fresh IFN-β and the labelled HSP90 inhibitor (label IFN-β: no inhibitor)): 99
- MHC Class I, geometric mean of surface staining (W6/32) (A375 melanoma cell line; 4 day IFN-β pre-treatment (5000 Units/ml), then 3 days without IFN-β with the labelled HSP90 inhibitor (label IFN-β: no inhibitor)): 42
- MART-1, geometric mean of intracellular staining using anti-MART-1 (A375 melanoma cell line; [7]): 9
- MHC Class I, geometric mean of surface staining (W6/32) (A375 melanoma cell line; single agent for 3 days, no IFN-β pre-treatment, IFN-β 5000 Units/ml): 87
- MHC Class I, geometric mean of surface staining (W6/32) (A375 melanoma cell line; three days, IFN-β 5000 Units/ml): 84
- Class I MHC, geometric mean of surface staining (W6/32) [2, 9]: 61
- Class I MHC, geometric mean of surface staining (W6/32) [2, 10]: 63
- L243 (MHC Class II surface staining) ([2]; single agent): 129.8
- W6/32 (MHC Class I surface staining) ([2]; single agent): 81
- Class I MHC, geometric mean of surface staining (W6/32) [2, 11]: 102
- MHC Class I, geometric mean of surface staining (W6/32) [2, 12]: 81
- MHC Class II, geometric mean of surface staining (L2443) [2, 12]: 278
- MHC Class I, geometric mean of surface staining (W6/32) [2, 13]: 28
- Class I MHC, geometric mean of surface staining (W6/32) [3, 9]: 208
- Class I MHC, geometric mean of surface staining (W6/32) [3, 10]: 165
- L243 (MHC Class II surface staining) ([3]; single agent): 10.3
- W6/32 (MHC Class I surface staining) ([3]; single agent): 368.2
- Class I MHC, geometric mean of surface staining (W6/32) [3, 11]: 62
- MHC Class I, geometric mean of surface staining (W6/32) [3, 13]: 62
- L243 (MHC Class II surface staining) ([4]; HELA, single agent): 5.2
- W6/32 (MHC Class I surface staining) ([4]; HELA, single agent): 370.8
- Class I MHC, geometric mean of surface staining (W6/32) ([4]; HeLa, 4 day IFN-β pre-treatment (5000 Units/ml), then 3 days with fresh IFN-β, with PU-H71 0.3 where labelled (label IFN-β: no inhibitor)): 107
- Class I MHC, geometric mean of surface staining (W6/32) ([4]; HeLa, 4 day IFN-β pre-treatment (5000 Units/ml), then 3 days without IFN-β, with PU-H71 0.3 where labelled (label IFN-β: no inhibitor)): 120
- Class I MHC, geometric mean of surface staining (W6/32) ([4]; HeLa, single agent for 3 days, no IFN-β pre-treatment, IFN-β 5000 Units/ml, PU-H71 0.3): 126
- MHC Class II, geometric mean of surface staining (L2443) ([4]; HeLa, three days, IFN-β 5000 Units/ml, IFN-γ 100 ng/ml, PU-H71 0.3 mg/ml): 8
- MHC Class I, geometric mean of surface staining (W6/32) ([4]; HeLa, three days, IFN-β 5000 Units/ml, IFN-γ 100 ng/ml, PU-H71 0.3): 240
- MHC Class I, geometric mean of surface staining (W6/32) ([4]; HeLa, three days, IFN-β 5000 Units/ml, PU-H71 0.075-0.3): 185
- L243 (MHC Class II surface staining) (U2-OS osteosarcoma cells; single agent): 1.9
- W6/32 (MHC Class I surface staining) (U2-OS osteosarcoma cells; single agent): 290.3
- MHC Class I, geometric mean of surface staining (W6/32) (U2-OS osteosarcoma cells; [12]): 82
- MHC Class II, geometric mean of surface staining (L2443) (U2-OS osteosarcoma cells; [12]): 4
- MHC Class I, geometric mean of surface staining (W6/32) (U2-OS osteosarcoma cells; [13]): 180
- MHC Class II, geometric mean of surface staining (L2443) ([5]; Giloma-118, three days, IFN-β 5000 Units/ml, IFN-γ 100 ng/ml, PU-H71 0.3 mg/ml): 3
- MHC Class I, geometric mean of surface staining (W6/32) ([5]; Giloma-118, three days, IFN-β 5000 Units/ml, IFN-γ 100 ng/ml, PU-H71 0.3): 62
- L243 (MHC Class II surface staining) ([5]; U118, single agent): 2.7
- W6/32 (MHC Class I surface staining) ([5]; U118, single agent): 299.2
- Class I MHC, geometric mean of surface staining (W6/32) ([5]; 4 day IFN-β pre-treatment (5000 Units/ml), then 3 days with fresh IFN-β, with PU-H71 0.3 where labelled (label IFN-β: no inhibitor)): 81
- Class I MHC, geometric mean of surface staining (W6/32) ([5]; 4 day IFN-β pre-treatment (5000 Units/ml), then 3 days without IFN-β, with PU-H71 0.3 where labelled (label IFN-β: no inhibitor)): 88
- Class I MHC, geometric mean of surface staining (W6/32) ([5]; single agent for 3 days, no IFN-β pre-treatment, IFN-β 5000 Units/ml, PU-H71 0.3): 56
- Class I, fold increase relative to untreated control [5, 14]: 2.6 fold
- Class I, geometric mean of surface staining (W6/32) [5, 14]: 132
- gp100, fold increase relative to untreated control [5, 14]: 1.1 fold
- gp100, geometric mean of intracellular staining [5, 14]: 49
- MHC Class I, geometric mean of surface staining (W6/32) ([5]; U-118 glioma, three days, IFN-β 5000 Units/ml, PU-H71 0.075-0.3): 62

— US20140335050A1, “METHODS, COMPOSITIONS, AND KITS FOR THE TREATMENT OF CANCER” (The General Hospital Corporation, priority 2011, published 2014)
